Each structure is given as a SMILES string.

The assay deals with T1, CYP1B1 (Homo sapiens, UniProt Q16678).
T1 construct: purchased Corning Inc
T1 sequence (Q16678 1-543): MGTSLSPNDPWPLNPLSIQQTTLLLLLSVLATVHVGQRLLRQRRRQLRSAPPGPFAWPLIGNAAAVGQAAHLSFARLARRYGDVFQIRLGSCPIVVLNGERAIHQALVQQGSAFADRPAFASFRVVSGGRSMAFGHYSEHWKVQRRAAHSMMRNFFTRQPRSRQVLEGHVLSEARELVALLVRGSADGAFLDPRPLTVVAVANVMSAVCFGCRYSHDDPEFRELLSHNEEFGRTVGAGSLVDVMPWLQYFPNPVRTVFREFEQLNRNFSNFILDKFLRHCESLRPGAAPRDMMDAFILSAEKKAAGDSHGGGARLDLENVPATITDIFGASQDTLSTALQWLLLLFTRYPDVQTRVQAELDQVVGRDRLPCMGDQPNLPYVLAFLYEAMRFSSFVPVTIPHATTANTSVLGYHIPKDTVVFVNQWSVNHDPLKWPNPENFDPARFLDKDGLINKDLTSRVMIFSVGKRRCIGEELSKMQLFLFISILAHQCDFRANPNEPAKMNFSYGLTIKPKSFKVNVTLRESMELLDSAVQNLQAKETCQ
In words: Enzyme inhibition assay, CYP1B1. The settings on record: Recombinant CYP1B1; 7-ethoxyresorufin O-deethylation. The format is in vitro ADME.

Take `COc1cc(C=Cc2ccc(OC)cc2OC)cc(OC)c1` [2,4,3′,5′-tetramethoxystilbene]: the IC50 – broadly, the midpoint of a concentration-inhibition curve – worked out at 220 nM.

Values taken from article PMC8706783 (Pharmaceutics, 2021).
